Structures are written as SMILES. pIC50: −log10 of the molar value.

By UniProt entry, the sequences of proteins in these tests, tags left out.
UniProt P40763, whole entry: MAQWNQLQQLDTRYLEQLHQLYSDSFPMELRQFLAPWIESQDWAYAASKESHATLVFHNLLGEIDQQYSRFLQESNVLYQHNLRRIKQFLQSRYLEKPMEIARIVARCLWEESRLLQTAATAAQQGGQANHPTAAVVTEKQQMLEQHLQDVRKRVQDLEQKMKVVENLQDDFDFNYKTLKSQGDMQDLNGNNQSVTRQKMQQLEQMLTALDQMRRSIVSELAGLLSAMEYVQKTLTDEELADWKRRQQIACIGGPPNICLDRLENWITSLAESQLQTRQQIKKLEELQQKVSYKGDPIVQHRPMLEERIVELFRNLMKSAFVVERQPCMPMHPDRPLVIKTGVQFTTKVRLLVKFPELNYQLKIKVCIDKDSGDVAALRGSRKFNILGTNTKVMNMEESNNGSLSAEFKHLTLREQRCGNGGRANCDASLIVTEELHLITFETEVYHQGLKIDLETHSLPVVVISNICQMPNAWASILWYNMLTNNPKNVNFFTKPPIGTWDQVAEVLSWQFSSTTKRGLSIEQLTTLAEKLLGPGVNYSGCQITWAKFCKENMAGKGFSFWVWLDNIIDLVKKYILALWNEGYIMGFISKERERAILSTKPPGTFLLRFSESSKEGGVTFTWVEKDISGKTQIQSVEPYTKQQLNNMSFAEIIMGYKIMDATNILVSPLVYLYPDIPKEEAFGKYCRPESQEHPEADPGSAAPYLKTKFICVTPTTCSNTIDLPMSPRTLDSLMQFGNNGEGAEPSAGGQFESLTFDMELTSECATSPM

In experiment [1] the target is T1, Signal transducer and activator of transcription 3 (Homo sapiens, UniProt P40763). Put plainly: Inhibition of recombinant STAT3 assessed as inhibition of STAT3-phosphododecapeptide interaction by SPR analysis. In general terms: Surface plasmon resonance follows binding to a sensor surface in real time, without labels.
For experiment [2], the target named is T1, Signal transducer and activator of transcription 3.

Regarding `CCN1C(=O)/C(=C/c2ccc(-c3ccc(C(=O)O)cc3)o2)SC1=S`, the negative logarithm of the IC50 (pIC50) (usually −log10 of the IC50, conventionally taken in molar units) in experiment [1] is 4.52. Compound `C[C@H]1COC2=C1C(=O)C(=O)c1c2ccc2c1CCCC2(C)C` [CRYPTOTANSHINONE] gave a negative-log IC50 (pIC50) in experiment [2] of 5.34.

For the origin of these results see ChEMBL document CHEMBL2169778, “Small molecule inhibitors of signal transducer and activator of transcription 3 (Stat3) protein” (J Med Chem, 2012).
